Values quoted from earlier work as cited in patent US20080077374A1, “Method for predicting biological, biochemical, biophysical or pharmacological characteristics of a substance” (priority 2006, published 2008).

Tested on: male Sprague Dawley rats
Conditions: SpragueDawley rats

SMILES | Subclass/Indication | Diagnosis cc (clinical chemistry) | Main target (main toxicity target) | 2nd toxicity (refinement of the principal toxicity)
CO[C@@]12[C@H](COC(N)=O)C3=C(C(=O)C(C)=C(N)C3=O)N1C[C@@H]1N[C@@H]12 [Mitomycin] | Toxin | + | Nephrotoxic | –
S=C=Nc1cccc2ccccc12 [ANIT] | Toxicant | – | – | Direct r. &
